The numbers were not newly measured in patent publication US5278308A, “Iodine derivatives of tetrabenazine” (The Trustees of The University of Pennsylvania, priority 1992, dated 1994), which cites them from elsewhere.

SMILES strings stand for the structures.

The test system of this data set is monoamine uptake-storage mechanism of amine granules in the synapse. To be noted: in vivo; cited from earlier work.

For `COC(=O)[C@H]1[C@H]2C[C@@H]3c4[nH]c5cc(OC)ccc5c4CCN3C[C@H]2C[C@@H](OC(=O)c2cc(OC)c(OC)c(OC)c2)[C@@H]1OC` [Reserpine], the “Duration of depletion of catecholamines and serotonin in the brain (in words)” value is reported as “long-lasting”.
